Test results as given in US11666071B2, “Compound salt of N,N-dimethylglycine and an organic acid and composition and use thereof” (GUANGZHOU INSIGHTER BIOTECHNOLOGY CO., LTD., priority 2017, dated 2023).

Assay: High-humidity stability test (hygroscopic weight gain)
Format: physicochemical
Settings: 25° C., RH 95%±1%

Substance	hygroscopic weight gain, Day 5 (%)	hygroscopic weight gain, Day 10 (%)
Zinc salt of N,N-dimethylglycine and benzoic acid [Sample 12]	3.03 ± 0.23	3.54 ± 0.08
Calcium salt of N,N-dimethylglycine and benzoic acid [Sample 5]	3.54 ± 0.39	3.59 ± 0.28
